From patent US20140100216A1, “STIMULATORS OF INCRETIN HORMONES SECRETION, METHOD FOR PREPARATION AND USE THEREOF” (priority 2011, published 2014)

Tested on: DIO-mice C57BL/6J
Conditions: Sitagliptin 30 mg/kg peroral 25 min before sugar, with TGR5 receptors agonist and glucose

With `N[C@@H](CC(=O)N1CCn2c(nnc2C(F)(F)F)C1)Cc1cc(F)c(F)cc1F` [Sitagliptin, reference compound] the “GLP-1 concentration in plasma (stability of GLP-1)” value was “maintains high GLP-1 concentration in plasma”.
